The record followed here is patent publication US11639355B2, “Substituted pyrrolo[3,4-d]imidazoles as MDM2-p53 inhibitors” (LUOXIN PHARMACEUTICAL (SHANGHAI) CO., LTD., priority 2018, dated 2023).

Series [1] is described as follows: Pharmacokinetic study in mice, tail vein injection and oral cassette dosing. The conditions noted are these: for Half-life T1/2 / Oral bioavailability F / Oral exposure AUC0-t: female Balb/c mice; for Half-life T1/2 / half-life in vivo compared with NVP-HDM201: intravenous injection 0.5 mpk; for Oral bioavailability F: iv 0.5 mpk, oral 2 mpk; for Oral exposure AUC0-t: oral administration 2 mpk; for half-life in vivo compared with NVP-HDM201 / oral bioavailability compared with NVP-HDM201 / plasma exposure compared with NVP-HDM201: mice; for oral bioavailability compared with NVP-HDM201 / plasma exposure compared with NVP-HDM201: oral administration 2 mg/kg.

Another series has as its system MDR1-MDCK cells. The experiment in a line: Two-way permeability evaluation in MDR1-MDCK cells.
For a further series, the system named is Caco-2 cells. As to the kind of experiment: Two-way permeability evaluation in Caco-2 cells. Background: Caco-2 cells form a polarised layer with tight junctions and transporters.
The mark [2] stands for this setting: Caco-2, 2 μM, pH 7.4, 2.5 hours.

As to `COc1ncc(-c2nc3c(n2C(C)C)C(c2ccc(Cl)cc2)N(c2ccc4c(c2)OCO4)C3=O)c(OC)n1` (single isomer, unassigned), in series [1], the “Half-life T1/2” value was 1.73 h, the “Oral bioavailability F” value came out at 64.4%, the “Oral exposure AUC0-t” value came to 9.626 µM·h and the “half-life in vivo compared with NVP-HDM201” value was “longer half-life”. Further, in series [1], the “oral bioavailability compared with NVP-HDM201” value was “higher oral bioavailability” and the “plasma exposure compared with NVP-HDM201” value is “significantly greater plasma exposure”.

On to `COc1ncc(-c2nc3c(n2C(C)C)[C@@](C)(c2ccc(Cl)cc2)N(c2ccc4c(c2)OCO4)C3=O)c(OC)n1`, for which, in series [1], the “Half-life T1/2” value is 1.18 h, the “Oral bioavailability F” value was 97.4%, the “Oral exposure AUC0-t” value turned out to be 10.377 µM·h and the “half-life in vivo compared with NVP-HDM201” value is given as “longer half-life”. In series [1], the “oral bioavailability compared with NVP-HDM201” value is on record as “higher oral bioavailability” and the “plasma exposure compared with NVP-HDM201” value was “significantly greater plasma exposure”. Besides, in the series on MDR1-MDCK cells, the “Average recovery rate A→B” value stood at 80.87% and the “Average recovery rate B→A” value is 78.5%. In addition, in the series on MDR1-MDCK cells (2 μM, pH 7.4, 2.5 hours), the “Average Papp A→B” value is given as 3.38 10^−6 cm/s and the “Average Papp B→A” value is on record as 23.6 10^−6 cm/s. Moreover, in the series with Caco-2 cells (Caco-2), the “Average recovery rate A→B” value is recorded as 73.22% and the “Average recovery rate B→A” value turned out to be 85.58%. Further, in the series with Caco-2 cells (setting [2]), the “Average Papp A→B” value was 1.15 10^−6 cm/s and the “Average Papp B→A” value is reported as 43.41 10^−6 cm/s.
